# Literature values, collected in patent publication US20140004170A1, “COATING OF A DRUG-ELUTING MEDICAL DEVICE” (CAPSULUTION PHARMA AG, priority 2010, published 2014).
# Like-named read-outs stand apart in the source and are kept apart here.
# Conditions: pH at which the amphoteric substance has no net charge
substance,measurement,setting,value
"Serum Albumin: Amphoteric polyelectrolyte, 66 kDa","IEP (positive below, negative above)",,positive < IEP 4.7 > negative
same,"IEP (positive below, negative above)",listed as Albumin,Albumin (IEP ca. 4.6-4.7)
